Amino acid sequences for entries named in this document (tags omitted).
UniProt P27338, whole entry: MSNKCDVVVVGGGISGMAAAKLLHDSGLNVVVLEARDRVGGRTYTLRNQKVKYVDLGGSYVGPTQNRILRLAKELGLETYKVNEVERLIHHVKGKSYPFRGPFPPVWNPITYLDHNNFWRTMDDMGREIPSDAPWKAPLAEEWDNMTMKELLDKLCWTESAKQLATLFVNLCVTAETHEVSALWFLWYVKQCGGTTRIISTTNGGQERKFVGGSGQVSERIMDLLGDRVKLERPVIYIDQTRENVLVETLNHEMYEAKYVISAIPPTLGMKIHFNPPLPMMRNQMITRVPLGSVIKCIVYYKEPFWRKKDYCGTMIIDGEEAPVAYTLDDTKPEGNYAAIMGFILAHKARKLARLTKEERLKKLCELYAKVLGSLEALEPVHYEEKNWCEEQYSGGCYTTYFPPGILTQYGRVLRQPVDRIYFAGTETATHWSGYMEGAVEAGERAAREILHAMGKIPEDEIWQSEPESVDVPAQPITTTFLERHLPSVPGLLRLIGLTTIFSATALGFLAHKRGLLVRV

In publication PMC6364133, “Selectivity of Dietary Phenolics for Inhibition of Human Monoamine Oxidases A and B” (BioMed Research International, 2019):

Target: MAO-B (Homo sapiens, UniProt P27338)
Assay: Inhibition mechanism studies (competition, time dependence) with MAO-B
Type: biochemical
Parameters: purchased BD Biosciences (San Jose, CA) or Corning Discovery Labware (Woburn, MA)
Details: 0.5 μM, preincubation 0-60 min, then kynuramine 20 μM
Method: To determine time dependence, the protocol by Obach et al. was followed. […] Tranylcypromine was used as a positive control for time-dependent inhibition, and DMSO (0.9% v/v) was used as a negative control. After adding kynuramine, the enzymes were incubated for 30 minutes before processing as described above.
Time depended data were analyzed by fitting either straight line or one-phase exponential decay models to the data in GraphPad Prism v5.

For `N[C@@H]1C[C@H]1c1ccccc1` (racemic) [tranylcypromine, reference compound], the “plateau inhibition, MAO-B” value was 85%.
